Assay results as given in patent US6670370B1 (priority 2001, dated 2003).

Experiment: Solubility in water (descriptive)
Settings: physical properties stated in detailed description

dextromethorphan tannate [D-M Tannate of the invention]
solubility in water: slightly soluble
